## OPERA 2.9 data: melting point values

Source: data files of OPERA 2.9 (Mansouri et al.), github.com/kmansouri/OPERA.

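OPERA's authors assembled the values from existing databases and did not measure them anew. A listed value is a point estimate from one report or more. Method, purity and exact conditions of the single measurements are not given. A value may pool stereoisomers or salt forms, and the file does not say which form was measured. Some upstream entries may be estimates or bounds without being marked so.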

The melting point is given in degrees Celsius.

- O=C(O)CCn1ccc2ccccc21 [1H-Indole-1-propionic acid]: mp 50 °C
- O=C(Cc1ccc(Cl)cc1)c1ccccc1 [Ethanone, 2-(4-chlorophenyl)-1-phenyl-]: mp 133 °C
- CC(=O)O[C@H]1CC[C@@]2(C)[C@H](CC[C@@H]3[C@@H]2C[C@@]2(O)[C@@H]4CN5C[C@@H](C)CC[C@H]5[C@@](C)(O)[C@@]4(O)[C@@H](O)C[C@@]32O)[C@@H]1O [Sabadine]: mp 258 °C
- O=C1CCC(=O)N1CCBr [1-(2-Bromoethyl)pyrrolidine-2,5-dione]: mp 54 °C
- NC(=S)NCc1ccc(F)cc1 [N-(4-fluorobenzyl)thiourea]: mp 120 °C
- O=C(O)Cc1ccc(Oc2ccccc2)cc1 [(4-Phenoxyphenyl)acetic acid]: mp 89.75 °C
- O=C(O)c1ccc(=O)n(Cc2ccccc2Cl)c1: mp 183 °C
- C=CCN1C(=O)c2ccc(C(=O)O)cc2C1=O [2-allyl-1,3-dioxoisoindoline-5-carboxylic acid]: mp 155 °C
- Cn1nc(CC(=O)O)c2ccccc2c1=O [(3-Methyl-4-oxo-3,4-dihydrophthalazin-1-yl)acetic acid]: mp 190 °C
- Cc1ccc(S(N)(=O)=O)cc1C [3,4-Dimethylbenzenesulfonamide]: mp 118 °C
- O=C(O)c1cc(-c2ccc(-c3ccccc3)cc2)nc2ccccc12 [2-Biphenyl-4-yl-quinoline-4-carboxylic acid]: mp 290 °C
- NNC(=O)CNc1ccc(F)cc1 [2-[(4-fluorophenyl)amino]acetohydrazide]: mp 81.5 °C
- O=C(O)c1cc(Cl)n[nH]c1=O [6-Chloro-3-hydroxy-4-pyridazinecarboxylic acid]: mp 213 °C
- Cc1ccc(C)c(N=Nc2c(O)ccc3ccccc23)c1 [1-[2-(2,5-Dimethylphenyl)diazenyl]-2-naphthalenol]: mp 153 °C
- CC(=O)Nc1ccc2nc(N)sc2c1 [N-(2-Amino-benzothiazol-6-yl)-acetamide]: mp 218 °C
- CCOc1ccccc1C(=O)CBr [2-Bromo-1-(2-ethoxyphenyl)ethan-1-one]: mp 75 °C
- Cc1ccc(NC(=O)/C=N/O)cc1 [2-Hydroxyimino-N-p-tolyl-acetamide]: mp 146 °C
- COCCn1c(N)cc(=O)[nH]c1=O [6-amino-1-(2-methoxyethyl)pyrimidine-2,4(1H,3H)-dione]: mp 91 °C
- Cc1nn2cn[nH]c2nc1=O [6-Methyl[1,2,4]triazolo[4,3-b][1,2,4]triazin-7(1H)-one]: mp 196 °C
- Cc1nn(-c2ccccc2)c(Oc2ccccc2)c1C=O [3-methyl-5-phenoxy-1-phenyl-1H-pyrazole-4-carbaldehyde]: mp 93 °C
- NNc1ccc(S(=O)(=O)CCO)cc1 [Ethanol, 2-[(4-hydrazinophenyl)sulfonyl]-]: mp 176 °C
- Cc1nn(-c2ccccc2)c(Cl)c1C(=O)O [5-Chloro-3-methyl-1-phenyl-1H-pyrazole-4-carboxylic acid]: mp 233 °C
- O=C(O)CCN1C(=O)c2ccccc2S1(=O)=O: mp 165 °C
- CCOc1ccc(S(=O)(=O)Cl)cc1 [4-ethoxybenzenesulfonyl chloride]: mp 42.5 °C
- O=C(O)C=Cc1ccncc1 [3-(4-Pyridinyl)-2-propenoic acid]: mp 265 °C
- CC1(c2ccc([N+](=O)[O-])cc2)NC(=O)NC1=O (configuration not stated) [5-Methyl-5-(4-nitro-phenyl)-imidazolidine-2,4-dione]: mp 236 °C
- O=S(=O)(Cc1nc2ccccc2[nH]1)c1ccccc1 [2-[(Benzenesulfonyl)methyl]-1H-benzimidazole]: mp 216 °C
- O=C1C2CC=CCC2C(=O)N1CCO (configuration not stated): mp 80 °C
- CSC(=C(C#N)C#N)N1CCOCC1: mp 144 °C
- CC(=O)Oc1ccc(C(=O)O)cc1OC(C)=O [Benzoic acid, 3,4-bis(acetyloxy)-]: mp 160 °C
- CC(C)c1ccc(C=O)cc1[N+](=O)[O-] [3-Nitro-4-(propan-2-yl)benzaldehyde]: mp 51 °C
- CCCCCCCC(=O)CCc1ccc(O)c(OC)c1 [6-Paradol]: mp 31.5 °C
- COC(=O)c1n[nH]c2ccc(N)cc12 [Methyl 5-amino-1H-indazole-3-carboxylate]: mp 182 °C
- O=C1NC(=O)N(c2ccccc2)C1=O [1-phenylimidazolidine-2,4,5-trione]: mp 214 °C
- O=S(=O)(c1ccc(F)cc1)N1CCNCC1 [1-[(4-fluorophenyl)sulfonyl]piperazine]: mp 113 °C
- CC(=O)CC(=O)Nc1cccc(C)c1 [N-(3-methylphenyl)-3-oxobutanamide]: mp 58 °C
- CCC(C)(C)[C@H]1CC[C@H](O)CC1 [trans-4-(1,1-Dimethylpropyl)cyclohexanol]: mp 25.5 °C
- O=C(O)CCc1nc(-c2ccc(Cl)cc2)no1 [3-[3-(4-chlorophenyl)-1,2,4-oxadiazol-5-yl]propanoic acid]: mp 153 °C
- N#CCc1ccc(NC(=O)CCl)cc1 [2-chloro-N-[4-(cyanomethyl)phenyl]acetamide]: mp 123 °C
- COc1ccccc1C(=O)Nc1ccc(O)cc1 [N-(4-hydroxyphenyl)-2-methoxybenzamide]: mp 173 °C

The first 7 entries again:

- O=C(O)CCn1ccc2ccccc21 [1H-Indole-1-propionic acid]: mp 50 °C
- O=C(Cc1ccc(Cl)cc1)c1ccccc1 [Ethanone, 2-(4-chlorophenyl)-1-phenyl-]: mp 133 °C
- CC(=O)O[C@H]1CC[C@@]2(C)[C@H](CC[C@@H]3[C@@H]2C[C@@]2(O)[C@@H]4CN5C[C@@H](C)CC[C@H]5[C@@](C)(O)[C@@]4(O)[C@@H](O)C[C@@]32O)[C@@H]1O [Sabadine]: mp 258 °C
- O=C1CCC(=O)N1CCBr [1-(2-Bromoethyl)pyrrolidine-2,5-dione]: mp 54 °C
- NC(=S)NCc1ccc(F)cc1 [N-(4-fluorobenzyl)thiourea]: mp 120 °C
- O=C(O)Cc1ccc(Oc2ccccc2)cc1 [(4-Phenoxyphenyl)acetic acid]: mp 89.75 °C
- O=C(O)c1ccc(=O)n(Cc2ccccc2Cl)c1: mp 183 °C